Data published in patent US20200102534A1.

Molecular target: PD-1 (Homo sapiens (Human)) (UniProt Q15116)
Experiment: flow cytometry of the TCR-T cells with 500 µg/mL fluorescently labeled antibody in PBS

- percent of cells blocked: 79.1%
Substance: monoclonal antibody drug Keytruda
